Results from publication PMC10850085 (2024).

Sequences of proteins named here, by UniProt entry; tags and fusion partners are left off. Residues count along the entry.
UniProt P40226, 22-356: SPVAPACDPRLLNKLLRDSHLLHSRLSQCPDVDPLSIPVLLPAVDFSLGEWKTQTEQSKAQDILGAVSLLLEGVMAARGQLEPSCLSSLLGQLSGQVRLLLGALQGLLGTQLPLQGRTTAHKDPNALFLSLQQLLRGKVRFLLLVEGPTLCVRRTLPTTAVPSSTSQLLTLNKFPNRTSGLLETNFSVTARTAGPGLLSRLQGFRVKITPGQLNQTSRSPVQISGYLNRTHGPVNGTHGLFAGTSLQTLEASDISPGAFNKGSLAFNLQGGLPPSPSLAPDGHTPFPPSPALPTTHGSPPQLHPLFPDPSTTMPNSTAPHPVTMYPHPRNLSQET

How the values were obtained:
[1] = biological target: T1, full-length murine Thrombopoietin (Tpo) (mouse, UniProt P40226 22-356, heavily glycosylated); assay: SPR; Tpo over immobilised TpoR
[2] = biological target: T1, full-length murine Thrombopoietin (Tpo); assay: SPR; Tpo over immobilised TpoR; remark: listed apart in the source
[3] = biological target: T1, full-length murine Thrombopoietin (Tpo); assay: SPR; TpoR over immobilised Tpo
[4] = biological target: T1, full-length murine Thrombopoietin (Tpo); assay: SPR; TpoR over immobilised Tpo; remark: listed apart in the source

- koff [1]: 0.007 s⁻¹
- Kd [2]: 3 nM
- koff [3]: 0.022 s⁻¹
- Kd [4]: 120 nM
B1: murine TpoR ectodomain, monomeric (TpoR_(1-479)) (receptor)
chain: QDVFLLALGTEPLNCFSQTFEDLTCFWDEEEAAPSGTYQLLYAYRGEKPRACPLYSQSVPTFGTRYVCQFPAQDEVRLFFPLHLWVKNVSLNQTLIQRVLFVDSVGLPAPPRVIKARGGSQPGELQIHWEAPAPEISDFLRHELRYGPTDSSNATAPSVIQLLSTETCCPTLWMPNPVPVLDQPPCVHPTASQPHGPAPFLTVKGGSCLVSGLQAGKSYWLQLRSQPDGVSLRGSWGPWSFPVTVDLPGDAVTIGLQCFTLDLKMVTCQWQQQDRTSSQGFFRHSRTRCCPTDRDPTWEKCEEEEPRPGSQPALVSRCHFKSRNDSVIHILVEVTTAQGAVHSYLGSPFWIHQAVLLPTPSLHWREVSSGRLELEWQHQSSWAAQETCYQLRYTGEGREDWKVLEPSLGARGGTLELRPRARYSLQLRARLNGPTYQGPWSAWSPPARVSTGSE
modifications: N-linked glycans at N117, N178, N349; tryptophan mannosylation (W465, W468)
